# scFv variants of Ab-91 (heavy chain) against a SARS-CoV-2 spike peptide

From the AlphaSeq antibody data of Engelhart et al. 2022 (doi:10.1038/s41597-022-01779-4), copy in the FLAb collection.

The target is the same throughout: PDVDLGDISGINAS, from the HR2 region of SARS-CoV-2 spike.

Each scFv is VL, a (GGGGS)3 linker, VH, as in the parent Ab-91, and differs from it in the CDRs of the heavy chain only.
VL: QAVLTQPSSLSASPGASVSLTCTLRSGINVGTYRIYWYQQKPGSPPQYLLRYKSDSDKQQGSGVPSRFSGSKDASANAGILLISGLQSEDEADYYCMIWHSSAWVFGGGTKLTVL
VH: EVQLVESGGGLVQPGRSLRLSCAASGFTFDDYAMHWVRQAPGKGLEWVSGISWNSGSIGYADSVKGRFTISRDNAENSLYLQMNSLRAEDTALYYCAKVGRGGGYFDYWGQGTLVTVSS

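The parent was found by panning a naive human phage display library on the peptide. AAYL51 was designed without a model: most single CDR substitutions and a random sample of double and triple ones. Affinity was read by AlphaSeq, a pooled yeast mating assay with surface-displayed partners. After mating in shaken culture at 30 °C for 16 h, diploids were selected and their barcode pairs sequenced. Scores were corrected for input abundance and mapped to Kd with protein pairs of known affinity run in the same pool. The assay was run in three technical replicates.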

Substitutions are numbered in sequence along the VH above, starting at 1 (not Kabat).
Every variant below is changed at N54 of the VH (sequential numbering).
Each Kd is an estimate from the mating assay, the geometric mean of the replicates in which the pair was seen; lower is stronger.
A pair that was not seen in any replicate is written "nd"; this usually means weak binding, but a binder can also be missed.
For reference, the parent read 72 nM as the reference entry and 7.5 nM as a member of this library.
Three control strains display no target. For library AAYL51, 21% of the pairings with them gave a signal, with a median of 34 µM and one signal in twenty below 1.8 µM, so weak values seen in few replicates may be background.

| changes | Kd (apparent) | detected |
|---|---|---|
| H35Q N54A I58D | 1.2 mM | 1 of 3 |
| S52N N54G K65R | nd | 0 of 3 |
| Y32R N54K V99E | 130 µM | 2 of 3 |
| A33W N54A R101P | 5.1 µM | 1 of 3 |
| N54L G56Q R101S | 140 µM | 2 of 3 |
| N54L S57E V99R | nd | 0 of 3 |
| N54D G102Q Y105Q | 450 µM | 2 of 3 |
| N54Q D62H G102M | 120 µM | 1 of 3 |
| H35G N54Y A61V | 53 µM | 3 of 3 |
| N54P V64I F106T | 20 µM | 2 of 3 |
| Y32Q A33D N54P | nd | 0 of 3 |
| F29D D30I N54T | 570 nM | 3 of 3 |
| N54D K65L G104T | 120 µM | 1 of 3 |
| N54L F106W | nd | 0 of 3 |
| F29S N54D G102I | nd | 0 of 3 |
| Y32M N54S G56W | 3.3 µM | 1 of 3 |
| D30Q N54S G103K | nd | 0 of 3 |
| G26M N54E G100R | 120 µM | 2 of 3 |
| S52A N54I V99W | nd | 0 of 3 |
| N54R V99Q | 45 µM | 2 of 3 |
| Y32N N54L A61S | 73 µM | 3 of 3 |
| S52N N54V R101C | nd | 0 of 3 |
| Y32P N54T G102K | 42 µM | 1 of 3 |
| M34P N54P R101E | nd | 0 of 3 |
| N54T Y60S Y105T | nd | 0 of 3 |
| N54C G59V V99L | nd | 0 of 3 |
| N54D A61E G103I | 340 µM | 2 of 3 |
| F29T H35P N54K | nd | 0 of 3 |
| N54P G59K F106M | nd | 0 of 3 |
| N54K G100R G102I | nd | 0 of 3 |
| S52C N54T V99L | 96 µM | 3 of 3 |
| N54V S55H G59D | nd | 0 of 3 |
| F27P N54L Y105D | nd | 0 of 3 |
| W53A N54M Y108N | 54 µM | 3 of 3 |
| A33H G50Q N54Q | nd | 0 of 3 |
| G50K N54G | nd | 0 of 3 |
| G26Y N54V S63T | nd | 0 of 3 |
| D31T N54I I58Q | nd | 0 of 3 |
| D30W N54S S55H | 210 µM | 1 of 3 |
| Y32R M34Y N54V | 2.3 mM | 3 of 3 |
| W53D N54E G103A | 5.6 µM | 2 of 3 |
| N54P G56W I58S | nd | 0 of 3 |
| Y32N N54I I58G | 170 µM | 1 of 3 |
| H35M N54A K65M | 39 µM | 1 of 3 |
| N54E D62T G104H | 4.5 µM | 2 of 3 |
| N54S G100E F106G | 21 nM | 3 of 3 |
| S52P N54S G56Q | 980 µM | 1 of 3 |
| G26K N54E V99K | 39 µM | 2 of 3 |
| F27A N54M D62G | nd | 0 of 3 |
| F27Y N54G G103V | 110 µM | 2 of 3 |
| N54L G100F | nd | 0 of 3 |
| N54E S57N F106V | nd | 0 of 3 |
| N54T G56M V64K | 5.0 µM | 2 of 3 |
| W53E N54E | nd | 0 of 3 |
| D30A N54C S57R | 69 µM | 2 of 3 |
| D31V N54R A61N | nd | 0 of 3 |
| A33T N54P G100N | 22 µM | 3 of 3 |
| N54S Y60I V99E | 110 µM | 2 of 3 |
| N54Y R101P G102P | nd | 0 of 3 |

5 of these entries, quoted again:

| changes | Kd (apparent) | detected |
|---|---|---|
| N54E D62T G104H | 4.5 µM | 2 of 3 |
| W53D N54E G103A | 5.6 µM | 2 of 3 |
| A33H G50Q N54Q | nd | 0 of 3 |
| H35M N54A K65M | 39 µM | 1 of 3 |
| N54T Y60S Y105T | nd | 0 of 3 |